# Apparent affinities of Ab-95 variants for a coronavirus HR2 peptide

Values reported by Engelhart et al. 2022, doi:10.1038/s41597-022-01779-4 (FLAb copy).

Target peptide (SARS-CoV-2 spike, HR2 region): PDVDLGDISGINAS

Parent scFv Ab-95: VH joined to VL by a 15-residue (Gly4Ser)3 linker. Changes lie in the light chain CDRs alone.
VH: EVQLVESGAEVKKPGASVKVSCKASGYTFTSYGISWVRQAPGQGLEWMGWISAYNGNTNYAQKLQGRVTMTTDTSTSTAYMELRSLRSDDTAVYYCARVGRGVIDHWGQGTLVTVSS
VL: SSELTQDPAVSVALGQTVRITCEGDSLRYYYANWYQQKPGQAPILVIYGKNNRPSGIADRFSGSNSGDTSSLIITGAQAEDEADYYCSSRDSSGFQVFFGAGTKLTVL

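The parent was found by panning a naive human phage display library on the peptide. Library AAYL52 holds single substitutions and randomly drawn double and triple substitutions in the CDRs. Affinity was read by AlphaSeq, a pooled yeast mating assay with surface-displayed partners. Binding brings cells together so that they mate, and sequencing counts the barcode pairs among the diploids. Scores were corrected for input abundance and mapped to Kd with protein pairs of known affinity run in the same pool. There are three technical replicates.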

Positions count from residue 1 of the parent VL; A32H puts H in place of A. Values are log10 of the apparent Kd in nM; lower means stronger binding. Replicates are averaged; those with no signal do not enter the mean. A pair that was not seen in any replicate is written "nd"; this usually means weak binding, but a binder can also be missed.

| log10 Kd (nM), mean | seen in | empty controls | changes |
|---|---|---|---|
| 4.69 | 2/3 | 5/9 | A32H/F95C/Q96Y |
| 4.24 | 2/3 | 5/9 | E23Y/S26V/Q96E |
| 4.40 | 2/3 | 3/9 | A32T/N33M/S92D |
| 3.04 | 2/3 | 2/9 | S92H/S93A/F95K |
| 3.47 | 3/3 | 2/9 | G49D/Q96Y/F98H |
| 2.20 | 3/3 | 4/9 | K50G/R90E/V97D |
| 4.38 | 2/3 | 1/9 | S26F/N33M/S55D |
| 5.40 | 2/3 | 3/9 | E23A/P54V/G94H |
| 3.14 | 3/3 | 4/9 | R28A/R90G/D91P |
| 3.12 | 3/3 | 3/9 | N51T/R90S/F98K |
| 3.77 | 3/3 | 4/9 | L27E/R90K |
| 2.56 | 3/3 | 3/9 | S26K/Y30V/Y31T |
| 3.01 | 3/3 | 1/9 | Y29G/N33M |
| 4.42 | 3/3 | 3/9 | N51M/R53F |
| 3.37 | 2/3 | 2/9 | G24S/R90M/S93D |
| 2.93 | 3/3 | 5/9 | E23K/A32D/K50A |
| nd | 0/3 | 0/9 | K50A/S88F/S89L |
| 3.76 | 3/3 | 3/9 | Y29Q/N51T/F98T |
| 4.89 | 1/3 | 4/9 | N51F/S55A/F98A |
| 1.97 | 3/3 | 5/9 | S26E/Y31D/A32T |
| 3.58 | 1/3 | 2/9 | N33C/S92W/G94V |
| 3.66 | 1/3 | 2/9 | E23V/G24F/S92H |
| 4.16 | 2/3 | 4/9 | Y31W/A32Q/S89F |
| 2.88 | 3/3 | 5/9 | R90T/S92R/F95D |
| 2.47 | 3/3 | 5/9 | S26W/L27S/Y30T |
| 3.74 | 3/3 | 2/9 | R28D/V97Q |
| 3.92 | 3/3 | 1/9 | Y31C/K50F/S55C |
| nd | 0/3 | 3/9 | A32K/K50Q/D91P |
| 2.37 | 3/3 | 0/9 | N52T/S55L/F98Q |
| 3.91 | 1/3 | 2/9 | S26A/Y30F/V97N |
| 3.36 | 3/3 | 3/9 | P54R/S92M |
| 3.57 | 2/3 | 3/9 | E23I/P54D/Q96E |
| 2.87 | 1/3 | 4/9 | G24V/D25L/A32T |
| 3.35 | 3/3 | 6/9 | E23F/D25N/Y31V |
| nd | 0/3 | 2/9 | R28V/G49F |
| 4.56 | 2/3 | 1/9 | R28W/S88N/Q96A |
| 3.38 | 3/3 | 2/9 | S55I/Q96H/V97C |
| nd | 0/3 | 2/9 | A32F/R90M/F98L |
| 3.18 | 2/3 | 2/9 | G24Q/S88H/F95L |
| 2.55 | 3/3 | 0/9 | Y29S/P54G/S88G |
| 3.83 | 1/3 | 2/9 | S26W/R53N/Q96L |
| 2.33 | 3/3 | 1/9 | D25A/S89C/F95S |
| nd | 0/3 | 1/9 | L27G/Y30A/R90W |
| 4.48 | 1/3 | 5/9 | R53G/R90A/S93H |
| 2.76 | 3/3 | 3/9 | E23S/S26N/K50E |
| 5.56 | 1/3 | 1/9 | R53K/R90A/F95E |
| 2.77 | 3/3 | 4/9 | A32R/N33A |
| 3.68 | 3/3 | 5/9 | G24F/K50V |
| 3.88 | 2/3 | 2/9 | S26N/R53E/P54V |
| nd | 0/3 | 1/9 | G24Q/G49I/S55F |
| 3.15 | 3/3 | 6/9 | K50H/S93A/G94L |
| 4.42 | 1/3 | 0/9 | S26C/Y30Q/D91M |
| 3.86 | 1/3 | 4/9 | Y29N/G49A/N51H |
| 4.14 | 2/3 | 4/9 | D25Q/S93A/F95K |
| 3.91 | 1/3 | 2/9 | Y29I/Y31R/S88G |
| nd | 0/3 | 1/9 | L27W/N33E/G94R |
| 3.73 | 2/3 | 3/9 | R28P/Y31D/V97I |
| 2.46 | 3/3 | 2/9 | N52T/R90D/S92Y |
| 3.98 | 1/3 | 2/9 | N52M/F98C |
| 3.66 | 1/3 | 2/9 | S26R/N52C/R53L |
| 3.74 | 1/3 | 3/9 | N33H/R90F/G94W |
| 3.37 | 2/3 | 3/9 | N51A/S89I/D91H |
| 4.17 | 2/3 | 4/9 | Y30W/N33H/S55A |
| 3.81 | 1/3 | 0/9 | Y29M/R53P/R90G |
| 3.01 | 3/3 | 3/9 | D25I/R28C/P54V |
| 3.97 | 2/3 | 3/9 | L27S/N51K/S88E |

Extract of 4 entries:

changes,"log10 Kd (nM), mean",seen in,empty controls
S26K/Y30V/Y31T,2.56,3/3,3/9
S26W/L27S/Y30T,2.47,3/3,5/9
D25A/S89C/F95S,2.33,3/3,1/9
S26N/R53E/P54V,3.88,2/3,2/9

Nonspecific signal, from three strains lacking the peptide, appeared in 28% of pairings of library AAYL52, centred on 3.91 (5% of these signals below 2.90); values are not corrected for it. Also given: how often the same scFv was detected with the empty control strains. In this assay the parent's reference entry averaged 2.31; its copy inside this library read 2.25.